Experiments:
Type in all cases: cell-based, human
myeloma cell lines [1] = test: Cell cycle analysis (BrdU incorporation) in myeloma cell lines; settings: β2m 20 μg/ml for 48 hours
Procedure: To determine the effect of β2m, or anti-β2m antibodies, on cell cycle progression, 5-bromo-2′-deoxyuridine (BrdU, Sigma) incorporation was used (Gratzner, H. G., Science, 218:474-475, 1982). Briefly, after treatment with the agent of interest, cells were incubated for 2 hours with 20 μM BrdU, fixed with 70% ethanol overnight, washed with PBS, and incubated in 2 M hydrochloride for 20 minutes. After washing, FITC-conjugated anti-BrdU antibody (Becton Dickinson, Franklin Lakes, N.J.) was added and incubated for 20 minutes, followed by washing and incubation with ribonuclease (100 μg/ml RNase, Sigma) and PI (50 μg/ml). Cells were analyzed by flow cytometry.

[2] = test system: cyclins A, D (D1 and D2), and E; test: Western blotting detection of cyclins in myeloma cell lines; settings: ARK-RS, ARP-1, RPMI-8226; β2m treatment
Procedure: (§1) Cells were cultured with or without 40 μg/ml β2m for 48 hours, harvested, washed, and lysed with lysis buffer (50 mM Tris, pH 7.5, 140 mM NaCl, 5 mM EDTA, 5 mM NaN3, 1% Triton-X-100, 1% NP-40, 1× protease inhibitor cocktail). To detect cyclins A, D (D1 and D2), and E, cell lysates were subjected to SDS-PAGE, transferred to polyvinylidene difluoride membrane, and immunoblotted with respective anticyclin antibodies (Santa Cruz Biotechnology, Inc., Santa Cruz, Calif.). The membrane was stripped and reprobed with anti-β-actin antibody (Santa Cruz Biotechnology) to ensure equivalent protein loading. For detection of caspase-3 activation and cleavage of poly(ADP-ribose) polymerase (PARP), the membranes were immunoblotted with anti-caspase-3 antibody (Santa Cruz Biotechnology) or anti-PARP antibody (BD PharMingen). Secondary antibodies conjugated to horseradish peroxidase were used for detection, followed by enhanced chemiluminescence (Bio-Rad Laboratories, Hercules, Calif.) and autoradiography.

myeloma cell lines [3] = test: Apoptosis assay (Annexin V/PI staining, TUNEL), myeloma cell lines
Procedure: (§2) The fraction of apoptotic cells was determined by staining cells with Annexin V-fluorescein isothiocyanate (FITC) (Immunotech) and propidium iodide (PI) (Sigma) (Vermes, I., et al., J. Immunol. Methods, 184:39-51, 1995). Myeloma cells were incubated in medium containing various concentrations of β2m, or anti-β2m antibody, or both, for 48 hours and then resuspended in Annexin V-binding buffer. 5 μl of Annexin V-FITC (BD PharMingen, San Diego, Calif.) were added and incubated for 30 minutes. After washing and re-suspension of the cells in the binding buffer, 5 μl of PI were added, and the cells were ready for analysis. Percentages of apoptotic cells are the sum of PI^−/Annexin V^+ (newly apoptotic) and PI^+/Annexin V^+ (already apoptotic) cell populations (Vermes, I., et al., J. Immunol. Methods, 184:39-51, 1995).
To confirm cell apoptosis induced by β2m and anti-β2m antibodies, the terminal deoxynucleotidyl transferase-mediated dUTP nick end labeling (TUNEL) assay was also employed. A flow cytometry-based cell death detection kit (APO-BRDU) was purchased from BD PharMingen, and experiments were performed according to the manufacturer's protocol.

caspase-3 and PARP = test: Western blot of caspase-3 activation and PARP cleavage in myeloma cells; settings: β2m treatment
Procedure: as §1
When the pan-caspase inhibitor Z-VAD-FMK was added to the culture, activation and processing of caspase-3 (data not shown), cleavage of PARP (FIG. 5B), and apoptosis (FIG. 5C) were inhibited.

[4] = test system: ARK-RS, ARP-1, RPMI-8226, and U266 cells; test: 3H-thymidine incorporation cell proliferation assay, EBV-negative myeloma cell lines; settings: β2m; dose-response in 48-hour culture, time-response at 20 μg/ml; P<0.05 and 0.01
Procedure: (§3) The U266, RPMI-8226, ARH-77, and IM-9 human myeloma-derived cell lines were obtained from the American Type Culture Collection (Rockville, Md.). The ARP-1 and ARK-RS cell lines were established at the Arkansas Cancer Research Center from bone marrow aspirates of patients with MM (Harding, J., et al., Blood, 84:3063-3070, 1994) and provided by Dr. J. Epstein. These cell lines, except ARH-77 and IM-9, are negative for Epstein-Barr virus (EBV). Cells were cultured in RPMI-1640 (Gibco, Grand Island, NY) containing 10% heat-inactivated (56° C. for 30 min) fetal bovine serum, 100 U/ml penicillin, 100 μg/ml streptomycin, and 4 mmol L-glutamine (Gibco).
(§4) Myeloma cells (1×10^5/ml for cell lines and 0.5-1×10^6/ml for primary cells) were cultured in complete medium. For experiments with β2m or anti-β2m antibody that bind β2m, cells were cultured in the absence or the presence of β2m for up to 120 hours or anti-β2m antibody for up to 48 hours. Viable cells were determined by trypan blue (Gibco) exclusion. […] Radioactivity was measured in a liquid scintillation analyzer (Packard, Meriden, Conn.). Experiments were performed in triplicate, and cell growth was expressed as a percentage of that seen in control media.

ARH-77 and IM-9 = test: 3H-thymidine incorporation cell proliferation assay, EBV-positive cell lines; settings: β2m; 48-hour culture; P<0.05 and 0.01
Procedure: as §3, §4

primary myeloma cells [5] = test: Apoptosis assay, primary myeloma cells; settings: 20 μg/ml β2m for 24 hours
Procedure: (§5) Primary myeloma cells were isolated from bone marrow aspirates obtained from patients during a routine clinic visit. Institutional Research Board-approved consent forms are kept on file. Briefly, bone marrow mononuclear cells were separated by Ficoll-Paque (Amersham Pharmacia Biotech, Piscataway, N.J.) density-gradient centrifugation. CD138^+ cells were isolated by incubation with anti-CD138 antibody-conjugated microbeads and sorted by VarioMACS magnetic cell-sorting kit (Miltenyi Biotec GmbH, Bergisch Gladbach, Germany), according to the manufacturer's recommendations. The sorted CD138^+ cell populations contained >90% myeloma plasma cells (Yi, Q., et al., Blood, 90:1960-1967, 1997). Freshly sorted cells were used in most of the experiments.
as §2, with “Percentages of apoptotic cells are the sum of PI^−/Annexin V^+ (newly apoptotic) and PI^+/Annexin V^+ (already apoptotic) cell populations (Vermes, I., et al., J. Immunol. Methods, 184:39-51, 1995).” left out

primary myeloma cells [6] = test: 3H-thymidine incorporation cell proliferation assay, primary myeloma cells; settings: β2m, 24 hours
Procedure: as §5, §4

In the case of “β2m: Purified human β2m from human urine (Sigma); 11.6-kDa non-glycosylated polypeptide of 100 amino acids”, the cell cycle distribution (myeloma cell lines [1]; ARK-RS, ARP-1, and RPMI-8226) is reported as “An increased percentage of cells in G0/G1 phases and a decreased percentage in S and G2/M phases”, the cell cycle distribution (myeloma cell lines [1]; U266) is reported as “not in U266 cells” and the “expression of cyclins A and D2” value [2] is reported as “downregulated cyclins A and D2”. The “expression of cyclins D1 and E” value [2] was “not cyclins D1 or E”, the “degree of apoptosis in six cell lines” value (myeloma cell lines [3]; 40 μg/ml β2m, six myeloma cell lines compared) was “higher in RPMI-8226, ARK-RS, and ARH-77 cells” and the induction of apoptosis (myeloma cell lines [3]; RPMI-8226, Annexin V and PI staining and TUNEL assay, P<0.01, dose-dependent) was “significant induction of apoptosis”. For the same substance, the “caspase-3 activation and PARP cleavage” value (caspase-3 and PARP; ARK-RS, ARP-1, and RPMI-8226 cells) was “activation and processing of caspase-3 and cleavage of PARP”, the “caspase-3 activation and PARP cleavage” value (caspase-3 and PARP; U266 cells) was “not in U266 cells” and the “proliferation of myeloma cell lines (3H-thymidine incorporation)” value [4] was “suppressed by β2m in a dose-dependent (FIG. 1A) and time-dependent (FIG. 1B) manner”. For the same substance, the “growth of EBV-positive cell lines” value (ARH-77 and IM-9) was “suppressed the growth”, the apoptotic cells (primary myeloma cells [5]; patient 1, untreated 20%) was 38% and the apoptotic cells (primary myeloma cells [5]; patient 5, untreated 30%) was 45%. For the same substance, the “proliferation of primary myeloma cells” value (primary myeloma cells [6]; patient no. 3) was “no apparent effect” and the “proliferation of primary myeloma cells” value (primary myeloma cells [6]; patient nos. 1, 2, 4, and 5, P<0.05) was “inhibited the proliferation of cells from 4 of these patients in a dose-dependent manner”.

Reference: US7341721B2, “β2-microglobulin (β2m) and anti-β2m binding agents as anti-cancer therapeutics” (The Board of Trustees of the University of Arkansas, priority 2002, dated 2008)
